Where a name gives a salt, the structure may show the parent alone. Read-outs that look alike come from different tables or passages of the source.
What was measured:
[1] = target: T1, α1A (rat submaxillary gland) (Rattus norvegicus, UniProt P43140); experiment: Radioligand binding with [3H]-prazosin, α1A
T1 construct: α1A (rat submaxillary gland); from tissue; host or cells: rat submaxillary gland
T1 sequence (P43140 1-466): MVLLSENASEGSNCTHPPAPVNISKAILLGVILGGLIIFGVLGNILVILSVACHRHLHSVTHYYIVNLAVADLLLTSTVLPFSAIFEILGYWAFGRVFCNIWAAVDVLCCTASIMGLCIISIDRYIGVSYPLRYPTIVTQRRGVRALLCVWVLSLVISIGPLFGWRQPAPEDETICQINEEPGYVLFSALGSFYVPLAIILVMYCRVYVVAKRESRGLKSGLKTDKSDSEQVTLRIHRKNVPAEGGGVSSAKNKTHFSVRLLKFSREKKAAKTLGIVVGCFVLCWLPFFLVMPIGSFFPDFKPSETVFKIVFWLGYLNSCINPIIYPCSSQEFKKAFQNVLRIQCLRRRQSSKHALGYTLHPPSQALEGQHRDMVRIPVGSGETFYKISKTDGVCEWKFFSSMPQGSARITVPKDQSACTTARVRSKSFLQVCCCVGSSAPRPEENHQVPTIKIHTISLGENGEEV
Description: (§1) For purposes of discussing α1 adrenoceptor subtypes, the IUPHAR convention of using lower case letters to define molecular clones and upper case letters to indicate pharmacologically defined adrenoceptors has been followed. Compounds of formula I were evaluated in radioligand binding assays specific for α1A (rat submaxillary gland), α1b (hamster receptor expressed in mouse fibroblasts) and α1d (rat receptor expressed in mouse fibroblasts) using [^3H]-prazosin as the radioligand as described in Knepper, et al. J. Pharm.

Chains of the proteins cited; added tags and fusions are not shown.
UniProt P18841, whole entry: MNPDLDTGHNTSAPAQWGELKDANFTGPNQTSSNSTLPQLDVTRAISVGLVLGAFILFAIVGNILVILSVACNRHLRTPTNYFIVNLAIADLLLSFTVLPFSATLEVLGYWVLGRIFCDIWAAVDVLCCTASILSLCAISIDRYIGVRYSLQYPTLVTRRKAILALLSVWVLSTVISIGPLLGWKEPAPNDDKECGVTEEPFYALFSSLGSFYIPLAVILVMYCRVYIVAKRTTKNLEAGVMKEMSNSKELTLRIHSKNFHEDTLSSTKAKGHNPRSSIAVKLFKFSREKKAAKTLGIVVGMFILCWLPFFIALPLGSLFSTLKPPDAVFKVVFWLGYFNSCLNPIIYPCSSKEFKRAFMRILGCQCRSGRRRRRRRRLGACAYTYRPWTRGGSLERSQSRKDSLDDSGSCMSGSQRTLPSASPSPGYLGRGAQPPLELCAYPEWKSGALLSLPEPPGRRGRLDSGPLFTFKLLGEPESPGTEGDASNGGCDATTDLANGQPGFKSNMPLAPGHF
UniProt P23944, whole entry: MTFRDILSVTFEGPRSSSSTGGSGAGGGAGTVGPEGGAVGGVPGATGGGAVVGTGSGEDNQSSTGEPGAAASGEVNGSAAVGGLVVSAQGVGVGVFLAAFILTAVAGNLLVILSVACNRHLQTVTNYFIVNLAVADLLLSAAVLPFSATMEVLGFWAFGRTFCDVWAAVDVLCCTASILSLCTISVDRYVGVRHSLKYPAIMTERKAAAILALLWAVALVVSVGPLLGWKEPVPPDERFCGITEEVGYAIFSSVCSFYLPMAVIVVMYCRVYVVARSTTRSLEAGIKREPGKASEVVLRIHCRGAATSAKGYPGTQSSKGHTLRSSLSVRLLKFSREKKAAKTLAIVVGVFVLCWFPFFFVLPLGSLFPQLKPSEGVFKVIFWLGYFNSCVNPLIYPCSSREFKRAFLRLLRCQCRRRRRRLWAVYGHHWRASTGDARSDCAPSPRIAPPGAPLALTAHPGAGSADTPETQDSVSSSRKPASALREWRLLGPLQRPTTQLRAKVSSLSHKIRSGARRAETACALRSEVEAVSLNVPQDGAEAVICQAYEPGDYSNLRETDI
UniProt P15823, whole entry: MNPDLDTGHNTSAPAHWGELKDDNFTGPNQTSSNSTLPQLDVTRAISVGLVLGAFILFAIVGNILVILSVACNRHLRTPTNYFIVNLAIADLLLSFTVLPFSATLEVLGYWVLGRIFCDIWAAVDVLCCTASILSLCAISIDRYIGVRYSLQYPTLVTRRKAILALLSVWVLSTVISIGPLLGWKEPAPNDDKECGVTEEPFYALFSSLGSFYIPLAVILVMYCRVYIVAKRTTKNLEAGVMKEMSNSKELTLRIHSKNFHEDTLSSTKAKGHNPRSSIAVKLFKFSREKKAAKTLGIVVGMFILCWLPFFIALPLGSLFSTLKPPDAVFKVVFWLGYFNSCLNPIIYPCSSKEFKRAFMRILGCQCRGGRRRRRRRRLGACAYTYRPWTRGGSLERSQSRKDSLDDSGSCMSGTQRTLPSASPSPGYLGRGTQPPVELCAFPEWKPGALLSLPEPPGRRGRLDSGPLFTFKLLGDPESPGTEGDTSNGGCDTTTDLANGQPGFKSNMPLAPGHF

[2] = target: T2, α1b (hamster receptor expressed in mouse fibroblasts) (Mesocricetus auratus, UniProt P18841); experiment: Radioligand binding with [3H]-prazosin, α1b
T2 construct: expressed in transfected cells; host or cells: mouse fibroblasts
Description: as §1

[3] = target: T3, α1d (rat receptor expressed in mouse fibroblasts) (Rattus norvegicus, UniProt P23944); experiment: Radioligand binding with [3H]-prazosin, α1d
T3 construct: expressed in transfected cells; host or cells: mouse fibroblasts
Description: as §1

α1A (rabbit urethra) = target: T4, α1A (rabbit urethra) (Oryctolagus cuniculus, UniProt O02824); experiment: Agonist contraction of smooth muscle tissue, rabbit urethra; assay type: cell-based; details: for EC50: read-out: Agonist Tissue Response (pD2) α1A (rab ureth) (converted)
T4 construct: tested for α1A functional activity using rabbit urethra; from tissue; host or cells: rabbit urethra
T4 sequence (O02824 1-466): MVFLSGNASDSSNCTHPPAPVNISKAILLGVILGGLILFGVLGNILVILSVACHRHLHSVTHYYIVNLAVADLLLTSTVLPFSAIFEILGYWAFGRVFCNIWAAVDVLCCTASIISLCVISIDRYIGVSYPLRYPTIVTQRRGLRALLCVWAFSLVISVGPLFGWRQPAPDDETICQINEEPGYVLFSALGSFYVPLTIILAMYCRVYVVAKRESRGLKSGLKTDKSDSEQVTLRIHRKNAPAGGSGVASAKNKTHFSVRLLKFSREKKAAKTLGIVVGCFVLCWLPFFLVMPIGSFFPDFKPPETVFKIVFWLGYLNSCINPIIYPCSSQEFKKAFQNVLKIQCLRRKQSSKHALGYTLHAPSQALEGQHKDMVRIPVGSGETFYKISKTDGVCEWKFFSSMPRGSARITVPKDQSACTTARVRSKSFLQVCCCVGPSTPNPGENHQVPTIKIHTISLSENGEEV
Description: Most of the compounds were tested for α1A functional activity using rabbit urethra as follows. Female New Zealand white rabbits (2.0-3.5 Kg) were sedated with CO2 and decapitated. […] Subsequent experimental conditions were as described above for the other tissues. Agonist concentration response curves were cumulative except for the vas deferens assay in which the transient response made such measurements impractical.

α1B (rat spleen) = target: T5, α1B (rat spleen) (Rattus norvegicus, UniProt P15823); experiment: Agonist contraction of smooth muscle tissue, rat spleen; assay type: cell-based; details: read-out: Agonist Tissue Response (pD2) α1B (rat spleen) (converted)
T5 construct: α1B (rat spleen) and α1D (rat aorta) receptors; from tissue; host or cells: rat spleen

α1D (rat aorta) = target: T6, α1D (rat aorta) (Rattus norvegicus, UniProt P23944); experiment: Agonist contraction of smooth muscle tissue, rat aorta; assay type: cell-based; details: endothelium removed, read-out: Agonist Tissue Response (pD2) α1D (rat aorta) (converted)
T6 construct: α1B (rat spleen) and α1D (rat aorta) receptors; from tissue; host or cells: rat aorta strips, endothelium removed

Anesthetized Dogs = experiment: Intraurethral pressure (IUP) in anesthetized dogs; assay type: in vivo, dog; details: anesthetized female dogs, iv
Source text: In vivo Functional Assays-Assessment of Intrurethral Pressure (IUP) and Mean Arterial Pressure (MAP) in Anesthetized Dogs
Female dogs (Marshall Farms, North Rose, N.Y.) greater that 2 years of age and weighing between 12 and 15 kg were used in these studies. At least 2 weeks prior to any agonist dosing, dogs were instrumented for the chronic measurement of arterial blood pressure by implanting a telemetry transducer/transmitter (TA11PA-C40, Data Sciences International, St. Paul, Minn.) into a carotid artery.
On the test day, dogs fasted since the previous afternoon were pre-anesthetized with thiopental sodium 15 mg/kg i.v. (Pentothal™, Abbott) and intubated. Anesthesia was maintained by allowing the dog to spontaneously breathe a mixture of isoflurane (2.5 to 3 volume %) and oxygen delivered by a Narkomed Standard anesthesia system (North American Drager, Telford, Pa.). An Abbocath-T™ i.v. catheter (18-G, Abbott) was inserted into the cephalic vein for the administration of agonists. A telemetry receiver (RA1310, DataSciences) was placed under the head of each dog and was interfaced to a computerized data acquisition system (Modular Instruments Inc.(MI2), Malvern, Pa.) which allowed for the continuous calibrated recording of arterial blood pressure which was electronically filtered to determine its mean value (MAP).
Dogs with chronic telemetry implants anesthetized as described above were placed in dorsal recumbency and a balloon catheter was inserted into the urethral orifice and advanced approximately 15 cm until the tip was well inside the bladder. The balloon was then inflated with 1 ml of room air and the catheter slowly withdrawn until resistance (corresponding to the bladder neck) was evident. The balloon was then deflated and the catheter withdrawn an additional 2 cm. The balloon was then reinflated and its catheter port connected to a Gould Statham P23Dd pressure transducer interfaced to a computerized data acquisition system (Modular Instruments, Inc., Malvern, Pa.) for the measurement of intraurethral pressure. Increasing iv doses of test agonists were administered and the maximum effect of each dose on IUP was recorded. The effect of each dose was allowed to return to baseline before the next dose was given.
From the resulting dose response curve, an ED5 value, for the dose causing a maximum increase in IUP of 5 mm Hg, could be estimated. An ED20 value for the dose causing a maximum increase in MAP of 20 mm Hg could also be estimated. A selectivity ratio of MAP ED20 vs. IUP ED5 was calculated.

[4] = Radioligand Binding Ki α1d (Rat)

Row | Compound | Ki [1] | Ki [2] | Ki [3, 4] | EC50 (α1A (rabbit urethra)) | EC50 (α1B (rat spleen)) | EC50 (α1D (rat aorta)) | Ki ([2]; hamster receptor expressed in mouse fibroblasts, [3H]-prazosin, read-out: Radioligand Binding Ki α1b (Hamster)) | Ki ([3]; read-out: Radioligand Binding Ki α1d (Rat)) | Agonist Tissue Response (pD2) α1A (rab ureth) (α1A (rabbit urethra)) | Mean Selectivity Ratio MAP ED20/IUP ED5 (Anesthetized Dogs)
1 | CS(=O)(=O)Nc1cccc2c1CCC[C@@H]2c1c[nH]cn1 [Example 10, (−)-N-[(5S)-5-(1H-imidazol-4-yl)-5,6,7,8-tetrahydro-1-naphthalenyl]methanesulfonamide] | 1.15 µM | 10.4 µM | 1.69 µM | 21.4 µM | 64.6 µM | 64.6 µM |  |  |  | 
2 | CCS(=O)(=O)Nc1cccc(/C(=C/OC)c2c[nH]cn2)c1 [Example 46, N-{3-[(Z)-1-(1H-imidazol-4-yl)-2-methoxyethenyl]phenyl}ethanesulfonamide, maleate] | 0.553 µM |  |  | 12.6 µM |  |  | 1.14 µM | 0.358 µM |  | 
3 | CS(=O)(=O)Nc1cccc2c1CCC2c1c[nH]cn1 (stereo not shown) [Example 22, N-[1-(1H-imidazol-4-yl)-2,3-dihydro-1H-inden-4-yl]methanesulfonamide, maleate] | 0.0919 µM | 2.03 µM | 0.761 µM | 0.166 µM | 3.02 µM | 8.51 µM |  |  |  | 
4 | CS(=O)(=O)Nc1cccc2c1CCC=C2c1c[nH]cn1 [Example 47, N-[5-(1H-imidazol-4-yl)-7,8-dihydro-1-naphthalenyl]methanesulfonamide, maleate] | 0.83 µM |  | 2.14 µM | 28.8 µM | > 1000 µM | > 1000 µM |  |  |  | 
5 | CCS(=O)(=O)Nc1cccc2c1CCC2c1c[nH]cn1.O=C(O)/C=C\C(=O)O (stereo not shown) [Example 39, N-[1-(1H-imidazol4-yl)-2,3-dihydro-1H-inden-4-yl]ethanesulfonamide, maleate] |  | 2.01 µM | 0.969 µM | 0.0661 µM | > 1000 µM | > 1000 µM |  |  |  | 
6 | CS(=O)(=O)Nc1cccc2c1OCCC2c1c[nH]cn1.O=C(O)/C=C\C(=O)O (stereo not shown) [Example 19, N-[4-(1H-imidazol-4-yl)-3,4-dihydro-2H-chromen-8-yl]methanesulfonamide, maleate] | 0.475 µM |  | 1.15 µM | 1 µM | 8.13 µM | 8.32 µM |  |  |  | 
7 | 5-Chloro-N-[5-(1H-imidazol-5-yl)-5,6,7,8-tetrahydro-1-naphthalenyl]-3-methyl-2,3-dihydro-1-benzothiophene-2-sulfonamide [Example 77] |  |  |  |  |  |  |  |  | 4.54 | 
8 | CC(=O)Nc1cccc2c1CCCC2c1c[nH]cn1.O=C(O)/C=C\C(=O)O (stereo not shown) [Example 16, N-[5,6,7,8-tetrahydro-5-(1H-imidazol-4-yl)-1-naphthalenyl]acetamide, maleate] | 0.52 µM |  |  | 1.29 µM | 14.5 µM | > 1000 µM |  |  |  | 3.1
9 | CS(=O)(=O)Nc1cccc2c1CCCC2c1c[nH]cn1.Cl (stereo not shown) [Example 8, N-[5-(1H-imidazol-4-yl)-5,6,7,8-tetrahydro-1-naphthalenyl]methanesulfonamide, hydrochloride] | 0.176 µM | 4.62 µM | 1.59 µM | 0.447 µM | 5.13 µM | 42.7 µM |  |  |  | 4.8
10 | CS(=O)(=O)Nc1cccc2c1CCC[C@H]2c1c[nH]cn1 [Example 9, (+)-N-[(5R)-5-(1H-imidazol-4-yl)-5,6,7,8-tetrahydro-1-naphthalenyl]methanesulfonamide] | 0.091 µM | 2 µM | 1.91 µM | 0.355 µM | > 1000 µM | > 1000 µM |  |  |  | 4.4
11 | CS(=O)(=O)Nc1cccc(Cc2c[nH]cn2)c1.O=C(O)/C=C\C(=O)O [Example 21, N-[3-(1H-imidazol-4-ylmethyl)phenyl]methanesulfonamide, maleate] |  |  |  |  |  |  |  |  |  | 2.7
